Drawing on ChEMBL document CHEMBL5726792, “Biaryl kinase inhibitors” (2018), this text covers IC50 for 2 compounds.

Chains of the proteins cited; added tags and fusions are not shown. Lines headed by an entry give the natural chain unless they say otherwise; changes in a name come on top.
UniProt Q2M2I8: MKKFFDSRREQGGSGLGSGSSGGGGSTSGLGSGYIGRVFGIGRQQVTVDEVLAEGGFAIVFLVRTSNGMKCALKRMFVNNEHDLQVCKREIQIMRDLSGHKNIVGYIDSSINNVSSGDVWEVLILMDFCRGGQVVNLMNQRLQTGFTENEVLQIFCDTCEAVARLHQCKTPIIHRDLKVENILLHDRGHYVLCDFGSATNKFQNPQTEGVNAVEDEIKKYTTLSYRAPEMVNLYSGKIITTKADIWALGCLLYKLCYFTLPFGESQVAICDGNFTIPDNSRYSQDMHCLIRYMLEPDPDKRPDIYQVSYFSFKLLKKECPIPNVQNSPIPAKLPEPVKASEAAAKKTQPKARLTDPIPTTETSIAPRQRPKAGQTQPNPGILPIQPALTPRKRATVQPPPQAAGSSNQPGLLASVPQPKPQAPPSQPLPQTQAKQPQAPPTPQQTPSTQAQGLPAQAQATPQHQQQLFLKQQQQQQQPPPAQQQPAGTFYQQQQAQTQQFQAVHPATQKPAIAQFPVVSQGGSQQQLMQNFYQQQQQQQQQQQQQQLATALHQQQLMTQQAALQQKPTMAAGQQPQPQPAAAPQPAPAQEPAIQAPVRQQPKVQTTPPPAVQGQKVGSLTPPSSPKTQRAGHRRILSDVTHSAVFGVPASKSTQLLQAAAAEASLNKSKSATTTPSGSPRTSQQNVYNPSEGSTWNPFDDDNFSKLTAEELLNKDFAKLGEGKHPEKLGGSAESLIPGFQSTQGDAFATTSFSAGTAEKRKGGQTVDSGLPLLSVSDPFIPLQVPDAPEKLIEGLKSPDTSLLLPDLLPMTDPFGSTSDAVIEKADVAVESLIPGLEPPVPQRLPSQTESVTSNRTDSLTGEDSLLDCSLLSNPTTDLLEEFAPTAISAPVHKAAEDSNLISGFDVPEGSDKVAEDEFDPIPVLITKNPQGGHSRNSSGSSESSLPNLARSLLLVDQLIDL

This test addresses AP2-associated protein kinase 1 (Homo sapiens, UniProt Q2M2I8). The experiment in a line: The reactions were initiated by the combination of bacterially expressed, GST-Xa-hAAK1 with substrates and test compounds. The reactions were incubated at room temperature for 3 hours and terminated by adding 60 μl of 35 mM EDTA buffer to each sample. […] Compounds were dissolved at 10 mM in dimethylsulfoxide (DMSO) and evaluated at eleven concentrations.

For orientation: IC50 means the concentration that gives 50% inhibition. As for `CC(C)C[C@](C)(N)COc1cnc(-c2ccncc2)cc1Cl`, the half-maximal inhibitory concentration (IC50) was found to be 3.2 nM.

For `CC(C)C[C@](C)(N)COc1cnc(-c2ccnc(Cl)c2)cc1Cl`, the IC50 amounted to 2.2 nM.
